Values of other authors, collected in PMC6994236.

Protein sequences, listed by entry. Tags and fused reporters are not part of them. Lines headed by an entry give the natural chain unless they say otherwise; changes in a name come on top. Residues count along the entry.
UniProt Q62765: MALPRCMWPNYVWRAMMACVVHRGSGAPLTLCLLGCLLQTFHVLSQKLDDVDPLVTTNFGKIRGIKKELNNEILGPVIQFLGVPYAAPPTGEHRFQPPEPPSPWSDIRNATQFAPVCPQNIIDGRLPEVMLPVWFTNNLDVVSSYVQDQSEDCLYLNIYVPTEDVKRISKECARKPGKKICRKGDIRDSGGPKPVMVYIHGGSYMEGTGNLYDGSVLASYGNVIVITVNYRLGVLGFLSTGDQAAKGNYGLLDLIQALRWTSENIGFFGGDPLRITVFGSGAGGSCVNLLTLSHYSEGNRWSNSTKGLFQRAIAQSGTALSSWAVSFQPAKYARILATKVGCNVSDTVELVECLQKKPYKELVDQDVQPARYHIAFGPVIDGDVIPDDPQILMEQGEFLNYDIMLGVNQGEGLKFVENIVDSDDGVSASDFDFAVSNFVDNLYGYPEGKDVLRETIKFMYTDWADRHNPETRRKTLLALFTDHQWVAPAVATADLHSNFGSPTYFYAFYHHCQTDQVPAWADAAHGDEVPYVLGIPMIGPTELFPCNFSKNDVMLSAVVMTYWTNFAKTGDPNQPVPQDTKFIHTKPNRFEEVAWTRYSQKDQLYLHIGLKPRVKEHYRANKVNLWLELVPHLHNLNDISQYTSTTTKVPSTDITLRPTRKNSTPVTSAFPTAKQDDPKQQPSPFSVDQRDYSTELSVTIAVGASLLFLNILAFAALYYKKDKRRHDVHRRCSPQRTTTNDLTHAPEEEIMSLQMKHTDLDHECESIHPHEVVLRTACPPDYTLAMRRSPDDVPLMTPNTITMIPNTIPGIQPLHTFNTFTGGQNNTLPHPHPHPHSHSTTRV
UniProt P31016, 61-393: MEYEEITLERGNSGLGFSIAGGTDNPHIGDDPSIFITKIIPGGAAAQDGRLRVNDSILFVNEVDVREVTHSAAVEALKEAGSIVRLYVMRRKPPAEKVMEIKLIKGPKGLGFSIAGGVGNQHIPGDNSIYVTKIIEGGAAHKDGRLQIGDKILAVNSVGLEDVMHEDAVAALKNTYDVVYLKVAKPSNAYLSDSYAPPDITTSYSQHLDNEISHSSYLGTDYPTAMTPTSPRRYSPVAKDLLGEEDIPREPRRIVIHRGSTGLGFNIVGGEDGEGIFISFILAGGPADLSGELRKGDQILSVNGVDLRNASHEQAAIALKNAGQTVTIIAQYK

Molecular target: Neuroligin-1 C-terminal 16mer peptide (Rattus norvegicus) (UniProt Q62765)
Test: surface plasmon resonance

**Q.** With PSD-95 PDZ1-3 (from UniProt P31016) as the substance, how does the Kd read?
**A.** Its Kd is 200 nM.
